Laboratory results reported in PubChem BioAssay (NCI).
This is a selection; strong and weak results do not stand in their true shares.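 Treatment: one concentration, 48 hours, 96-well format. Scoring: percent growth, with anything below 10 considered active.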 Active and inactive are the calls of the source.

Columns and labels:
Test in all cases: NCI-60 one-dose screen, 48 h (100 = growth as untreated, 0 = no growth, -100 = all killed)
Conditions in all cases: 10 µM unless noted
[1] = test system: SK-MEL-2 melanoma
[2] = test system: EKVX NSCLC
[3] = test system: SN12C renal
[4] = test system: UO-31 renal
[5] = test system: TK-10 renal
[6] = test system: ACHN renal
[7] = test system: CAKI-1 renal
[8] = test system: HL-60(TB) leukemia
[9] = test system: CCRF-CEM leukemia
[10] = test system: MOLT-4 leukemia
[11] = test system: SR leukemia
[12] = test system: RPMI-8226 leukemia
[13] = test system: OVCAR-8 ovarian
[14] = test system: OVCAR-5 ovarian
[15] = test system: OVCAR-4 ovarian
[16] = test system: SK-OV-3 ovarian
[17] = test system: IGROV1 ovarian
[18] = test system: OVCAR-3 ovarian
[19] = test system: HS 578T breast
[20] = test system: A498 renal

Measured: growth

N#CC(C#N)=C(C#N)N(CCCl)CCCl
inactive: [1] 107% | [2] 113% | [3] 93.4% | [4] 96.9% | [5] 106% | [6] 103% | [7] 92.9% | [8] 96.1% | [9] 85.2% | [10] 65.4% | [11] 50.5% | [12] 102% | [13] 96.3% | [14] 108% | [15] 101% | [16] 115% | [17] 83.7% | [18] 100% | [19] 102%

Nc1ccc(N=Nc2ccc([As](=O)(O)O)cc2)cc1
inactive: [1] 118% | [2] 114% | [3] 107% | [4] 77.6% | [5] 115% | [6] 95.7% | [7] 89.3% | [20] 90.1% | [8] 107% | [9] 96.6% | [10] 97.6% | [12] 110% | [13] 114% | [14] 95.6% | [15] 107% | [16] 99.8% | [17] 104% | [18] 107% | [19] 111%

COC(=O)C1(C)COP(=O)(N2CCCCCC2)OC1 (centres undefined)
inactive: [1] 95.7% | [2] 102% | [3] 94.1% | [4] 82.4% | [5] 97.1% | [6] 108% | [7] 101% | [20] 104% | [8] 95% | [9] 103% | [10] 94.7% | [12] 123% | [13] 105% | [14] 114% | [15] 110% | [16] 91.7% | [17] 110% | [18] 110% | [19] 109%

NC1=NCC(Br)CS1 (centres undefined)
inactive: [1] 104% | [2] 111% | [3] 106% | [4] 91% | [5] 99.5% | [6] 98.9% | [7] 93.6% | [20] 105% | [8] 101% | [9] 100% | [10] 99% | [12] 92.4% | [13] 109% | [14] 106% | [15] 92.2% | [16] 121% | [18] 106% | [19] 102%

CC(C)=N/N=C(\N)N[N+](=O)[O-]
inactive: [1] 117% | [2] 101% | [3] 110% | [4] 109% | [5] 105% | [6] 108% | [7] 104% | [8] 130% | [9] 93.6% | [10] 114% | [11] 98.1% | [12] 89.9% | [13] 97% | [14] 106% | [15] 111% | [16] 104% | [17] 110% | [18] 102% | [19] 108%

Nc1ccc([As](=O)(O)c2ccc([N+](=O)[O-])cc2)cc1
inactive: [1] 115% | [2] 95.6% | [3] 101% | [4] 81.7% | [5] 119% | [6] 92.9% | [7] 94.6% | [20] 108% | [8] 88.4% | [9] 102% | [10] 89.2% | [12] 90.5% | [13] 110% | [14] 80.9% | [15] 109% | [16] 107% | [17] 140% | [18] 102% | [19] 102%

Cn1c(COc2ccc([N+](=O)[O-])cc2[N+](=O)[O-])cnc1[N+](=O)[O-]
inactive: [1] 97.2% | [2] 83% | [3] 104% | [4] 72.5% | [5] 110% | [6] 103% | [20] 99% | [8] 108% | [9] 105% | [10] 97.7% | [11] 104% | [12] 105% | [13] 106% | [14] 107% | [15] 97.9% | [16] 88.8% | [17] 103% | [18] 108% | [19] 112%

CN(C)P1(Cl)=NP(Cl)(N(C)C)=NP(Cl)(N(C)C)=N1 (centres undefined)
inactive: [1] 95.8% | [2] 95.5% | [3] 103% | [4] 84.8% | [5] 87.6% | [20] 75.9% | [8] 69% | [9] 97.3% | [10] 67.5% | [11] 90.1% | [12] 103% | [13] 89.8% | [14] 109% | [15] 109% | [16] 89.9% | [17] 107% | [18] 111% | [19] 97.6%

O=[As](O)(c1ccccc1)c1ccc(O)cc1
inactive: [1] 91.6% | [2] 103% | [3] 115% | [4] 90.8% | [5] 128% | [6] 103% | [20] 97.3% | [8] 93.1% | [9] 96.4% | [10] 102% | [11] 100% | [12] 81.6% | [13] 96.8% | [14] 80.9% | [15] 106% | [16] 102% | [18] 110% | [19] 113%

ClCCN(CCc1ccccc1)Cc1ccccc1
inactive: [1] 99.4% | [2] 99.7% | [4] 93.7% | [5] 90.1% | [6] 105% | [7] 101% | [20] 94.4% | [8] 98.8% | [9] 102% | [10] 91.2% | [11] 91% | [12] 102% | [13] 99.7% | [14] 94% | [15] 113% | [16] 108% | [17] 105% | [18] 99.7% | [19] 103%

Nc1cccc2ccc([As](=O)(O)O)cc12
inactive: [1] 112% | [2] 108% | [3] 108% | [4] 90.7% | [5] 103% | [6] 99.6% | [7] 93.7% | [8] 124% | [9] 101% | [10] 103% | [12] 105% | [13] 103% | [14] 102% | [15] 90.9% | [16] 114% | [17] 108% | [18] 114%
